The text below walks through data of patent US9238656B2, “Imidazo[4,5-b]pyridine derivatives as ALK and JAK modulators for the treatment of proliferative disorders” (priority 2012, dated 2016).

Amino acid sequences for entries named in this document (tags omitted). Residues count along the entry.
UniProt Q9UM73, 19-1620 limits assumed: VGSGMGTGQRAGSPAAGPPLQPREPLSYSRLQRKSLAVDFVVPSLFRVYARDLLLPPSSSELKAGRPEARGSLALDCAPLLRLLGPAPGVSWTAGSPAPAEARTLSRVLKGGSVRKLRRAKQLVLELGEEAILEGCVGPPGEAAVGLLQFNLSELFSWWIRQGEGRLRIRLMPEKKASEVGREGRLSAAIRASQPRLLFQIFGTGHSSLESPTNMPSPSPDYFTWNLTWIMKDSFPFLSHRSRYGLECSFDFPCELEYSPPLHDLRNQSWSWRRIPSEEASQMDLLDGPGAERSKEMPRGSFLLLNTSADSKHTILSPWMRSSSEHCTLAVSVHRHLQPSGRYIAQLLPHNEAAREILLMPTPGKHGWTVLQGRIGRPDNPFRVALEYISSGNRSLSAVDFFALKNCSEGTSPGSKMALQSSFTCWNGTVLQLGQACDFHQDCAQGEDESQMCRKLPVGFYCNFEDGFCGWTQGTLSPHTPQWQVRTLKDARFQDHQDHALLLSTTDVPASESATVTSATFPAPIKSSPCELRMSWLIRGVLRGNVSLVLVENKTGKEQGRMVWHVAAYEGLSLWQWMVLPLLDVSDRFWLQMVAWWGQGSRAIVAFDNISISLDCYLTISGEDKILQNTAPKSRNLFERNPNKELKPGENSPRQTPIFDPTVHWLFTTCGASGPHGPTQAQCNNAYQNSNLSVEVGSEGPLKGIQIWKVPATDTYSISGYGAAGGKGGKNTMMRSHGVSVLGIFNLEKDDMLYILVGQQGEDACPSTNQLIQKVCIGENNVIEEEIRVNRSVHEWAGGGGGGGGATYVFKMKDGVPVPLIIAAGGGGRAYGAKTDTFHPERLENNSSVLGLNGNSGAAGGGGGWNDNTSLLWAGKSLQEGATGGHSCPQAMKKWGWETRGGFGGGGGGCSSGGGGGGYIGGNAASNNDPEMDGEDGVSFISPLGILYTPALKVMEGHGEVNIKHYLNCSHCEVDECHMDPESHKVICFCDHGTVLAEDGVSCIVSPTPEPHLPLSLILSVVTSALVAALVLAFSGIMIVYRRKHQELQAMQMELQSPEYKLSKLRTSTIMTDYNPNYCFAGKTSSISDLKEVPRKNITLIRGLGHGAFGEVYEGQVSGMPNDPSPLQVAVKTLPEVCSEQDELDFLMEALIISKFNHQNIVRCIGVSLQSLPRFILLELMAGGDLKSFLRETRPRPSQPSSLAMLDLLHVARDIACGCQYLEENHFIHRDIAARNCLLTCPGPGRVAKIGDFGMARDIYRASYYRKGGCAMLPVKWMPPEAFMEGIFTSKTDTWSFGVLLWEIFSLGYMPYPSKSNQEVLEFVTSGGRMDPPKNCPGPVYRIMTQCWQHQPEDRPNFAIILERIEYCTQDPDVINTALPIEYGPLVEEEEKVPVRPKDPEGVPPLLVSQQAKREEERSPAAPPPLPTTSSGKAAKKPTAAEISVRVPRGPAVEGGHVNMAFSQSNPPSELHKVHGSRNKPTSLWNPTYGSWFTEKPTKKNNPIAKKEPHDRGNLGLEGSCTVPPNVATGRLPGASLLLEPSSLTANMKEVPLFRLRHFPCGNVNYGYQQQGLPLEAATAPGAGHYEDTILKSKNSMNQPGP
UniProt O60674, whole entry: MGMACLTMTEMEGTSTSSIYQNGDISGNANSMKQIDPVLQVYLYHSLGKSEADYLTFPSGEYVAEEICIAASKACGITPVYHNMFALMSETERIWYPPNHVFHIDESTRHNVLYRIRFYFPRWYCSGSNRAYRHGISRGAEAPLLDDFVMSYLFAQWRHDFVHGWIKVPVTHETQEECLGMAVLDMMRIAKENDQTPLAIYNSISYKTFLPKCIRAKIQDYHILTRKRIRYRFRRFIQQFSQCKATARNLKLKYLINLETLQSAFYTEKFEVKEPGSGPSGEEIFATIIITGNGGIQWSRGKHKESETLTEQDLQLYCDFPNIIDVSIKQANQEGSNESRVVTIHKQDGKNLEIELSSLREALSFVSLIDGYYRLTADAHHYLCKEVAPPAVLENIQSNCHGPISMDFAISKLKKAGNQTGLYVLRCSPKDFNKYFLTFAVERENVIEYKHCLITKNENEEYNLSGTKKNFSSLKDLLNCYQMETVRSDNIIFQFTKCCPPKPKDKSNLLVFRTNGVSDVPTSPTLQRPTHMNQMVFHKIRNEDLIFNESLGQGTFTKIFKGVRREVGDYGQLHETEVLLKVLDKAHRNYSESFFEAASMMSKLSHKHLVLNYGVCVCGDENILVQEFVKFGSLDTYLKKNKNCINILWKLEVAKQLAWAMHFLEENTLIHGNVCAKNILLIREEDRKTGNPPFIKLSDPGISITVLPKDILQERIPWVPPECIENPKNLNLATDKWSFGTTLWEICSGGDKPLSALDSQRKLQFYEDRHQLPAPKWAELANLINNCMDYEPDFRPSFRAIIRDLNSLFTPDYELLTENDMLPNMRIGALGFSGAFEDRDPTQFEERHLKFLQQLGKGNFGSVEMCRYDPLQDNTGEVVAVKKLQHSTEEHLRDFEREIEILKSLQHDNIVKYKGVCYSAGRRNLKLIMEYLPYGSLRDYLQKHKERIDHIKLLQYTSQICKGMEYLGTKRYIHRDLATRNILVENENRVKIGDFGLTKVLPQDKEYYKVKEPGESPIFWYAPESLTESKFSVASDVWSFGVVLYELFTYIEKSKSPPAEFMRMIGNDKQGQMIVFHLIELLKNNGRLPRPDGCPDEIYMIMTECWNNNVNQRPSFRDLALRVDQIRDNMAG

Bounds are passed on as bounds.

The target in test [1] is baculovirus-expressed ALK (Homo sapiens, UniProt Q9UM73). The test is described as follows: ALK kinase inhibition, TRF/ELISA. In kind it is biochemical. The following applies: read-out: ALK Potency; 1 μM ATP (Km level). For orientation: An ELISA detects its analyte on a solid surface through an enzyme-linked reagent.
For test [2], the target named is baculovirus-expressed JAK2 kinase (Homo sapiens, UniProt O60674). The following applies: read-out: JAK2 Potency.

As for `COc1ncccc1-c1nc2c(N[C@H]3[C@@H](C(N)=O)[C@@H]4C=C[C@H]3C4)c(Cl)cnc2[nH]1`, the IC50 in test [1] was < 0.1 µM; in test [2] it was 0.1 to 1 µM.
